Experimental data from patent US20150258078A1, “COMPOSITIONS CONTAINING BERBERINE AND PANTETHINE AND METHODS FOR TREATMENT OF LIPID METABOLISM DISORDERS” (priority 2014, published 2015).

Assays:
[1] = test system: patients with hyperlipidemia; conditions: for LDL / triglycerides / HDL / total cholesterol: fasting serum, after 6 weeks; for LDL: N 0-99; for triglycerides: N 0-149; for HDL: N >39; for total cholesterol: N 100-199
[2] = test system: patients with elevated cholesterol and triglycerides; conditions: cited from earlier work

Pantethine
LDL ([1]; Patient No. 1): 75 mg/dL | triglycerides ([1]; Patient No. 1): 228 mg/dL | HDL ([1]; Patient No. 1): 48 mg/dL | total cholesterol ([1]; Patient No. 1, pantethine 300 mg PO BID, berberine 250 mg PO BID): 169 mg/dL | LDL ([1]; Patient No. 2): 177 mg/dL | triglycerides ([1]; Patient No. 2): 237 mg/dL | total cholesterol ([1]; Patient No. 2): 279 mg/dL | HDL ([1]; Patient No. 2): 38 mg/dL | LDL ([1]; Patient No. 3): 121 mg/dL | triglycerides ([1]; Patient No. 3): 164 mg/dL | total cholesterol ([1]; Patient No. 3): 181 mg/dL | HDL ([1]; Patient No. 3): 44 mg/dL | LDL ([1]; Patient No. 4): 203 mg/dL | triglycerides ([1]; Patient No. 4): 314 mg/dL | total cholesterol ([1]; Patient No. 4): 244 mg/dL | HDL ([1]; Patient No. 4): 42 mg/dL | LDL ([1]; Patient No. 5): 71 mg/dL | triglycerides ([1]; Patient No. 5): 220 mg/dL | total cholesterol ([1]; Patient No. 5): 162 mg/dL | HDL ([1]; Patient No. 5): 43 mg/dL | total serum cholesterol, LDL, triglycerides and HDL ([1]; all five patients, over baseline): improvement | LDL cholesterol ([2]; 600 and 900 mg/d doses, individuals with greatly or moderately elevated levels of blood lipids): statistically significant lowering | LDL cholesterol decreased ([2]; multiple clinical trials, daily intakes 600 to 1200 mg/day): 12%

Where two headings read alike, the source gives them in different places.
